Measured values published in patent US20250197382A1, “KIF18A INHIBITOR” (WIGEN BIOMEDICINE TECHNOLOGY (SHANGHAI) CO., LTD., priority 2022, published 2025).

Sequences of proteins named here, by UniProt entry; tags and fusion partners are left off. Residues count along the entry.
UniProt Q8NI77, 1-467 limits assumed: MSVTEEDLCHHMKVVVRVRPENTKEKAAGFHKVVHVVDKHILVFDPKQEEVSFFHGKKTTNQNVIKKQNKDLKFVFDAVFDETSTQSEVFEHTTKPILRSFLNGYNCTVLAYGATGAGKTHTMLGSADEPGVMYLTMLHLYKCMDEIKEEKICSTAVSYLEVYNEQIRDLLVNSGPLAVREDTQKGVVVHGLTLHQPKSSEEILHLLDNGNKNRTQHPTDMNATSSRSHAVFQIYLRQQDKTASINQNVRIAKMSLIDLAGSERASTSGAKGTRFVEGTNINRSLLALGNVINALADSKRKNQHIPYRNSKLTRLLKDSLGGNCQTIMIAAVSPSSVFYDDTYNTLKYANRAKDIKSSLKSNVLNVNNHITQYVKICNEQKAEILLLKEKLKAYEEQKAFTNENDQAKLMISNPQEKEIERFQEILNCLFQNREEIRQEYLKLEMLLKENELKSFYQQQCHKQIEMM
UniProt P02550, whole entry partner: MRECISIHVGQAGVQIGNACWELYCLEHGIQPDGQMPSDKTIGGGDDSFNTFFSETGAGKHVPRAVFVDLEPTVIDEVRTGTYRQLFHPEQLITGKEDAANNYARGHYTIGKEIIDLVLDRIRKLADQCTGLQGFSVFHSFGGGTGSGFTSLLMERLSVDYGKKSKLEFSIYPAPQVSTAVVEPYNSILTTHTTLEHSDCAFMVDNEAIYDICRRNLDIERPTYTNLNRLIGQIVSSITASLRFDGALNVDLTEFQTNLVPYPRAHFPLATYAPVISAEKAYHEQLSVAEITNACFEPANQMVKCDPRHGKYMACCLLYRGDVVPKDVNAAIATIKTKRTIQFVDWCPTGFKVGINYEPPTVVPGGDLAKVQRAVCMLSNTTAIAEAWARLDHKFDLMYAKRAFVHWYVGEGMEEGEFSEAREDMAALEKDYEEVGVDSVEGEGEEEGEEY
UniProt P02554, whole entry partner: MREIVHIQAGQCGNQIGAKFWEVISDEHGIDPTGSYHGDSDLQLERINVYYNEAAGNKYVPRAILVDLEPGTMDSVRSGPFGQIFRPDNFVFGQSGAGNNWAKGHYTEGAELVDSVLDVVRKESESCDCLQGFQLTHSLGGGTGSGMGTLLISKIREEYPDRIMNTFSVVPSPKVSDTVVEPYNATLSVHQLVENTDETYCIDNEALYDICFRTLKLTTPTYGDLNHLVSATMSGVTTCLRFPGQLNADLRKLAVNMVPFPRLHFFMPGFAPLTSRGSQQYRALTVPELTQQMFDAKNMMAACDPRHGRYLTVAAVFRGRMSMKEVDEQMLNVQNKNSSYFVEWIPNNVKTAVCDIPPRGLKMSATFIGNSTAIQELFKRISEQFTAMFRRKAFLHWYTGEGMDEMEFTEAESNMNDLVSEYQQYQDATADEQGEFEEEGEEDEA

Legend:
[1] = target: Recombinant human KIF18A (1-467His-tagged) protein (Homo sapiens (Human), UniProt Q8NI77); experiment: KIF18A enzyme assay (microtubule-stimulated ATPase activity, ADP-Glo); settings: read-out: inhibitory activity against KIF18A IC50, 30 nM KIF18A, ATP 75 μM
HT-29 cells = experiment: In vitro anti-proliferative activity against HT-29 cells (intracellular ATP content, 72 h); settings: read-out: anti-proliferative activity against HT-29 cells IC50, 72 h after dosing
Experimental: Biological Example 2. In Vitro Anti-Proliferative Activity of Compounds of the Present Invention Against HT-29 Cells
(§1) HT-29 cells were seeded on a 384-well plate at 3000 cells/well. After overnight adherence culture, DMSO or the compounds serially diluted in a 1:5 ratio from 5 μM were added. The viability was assessed 72 h after dosing by measuring the intracellular ATP content. The inhibition percentages of viable cells by the compounds were calculated by comparing with the DMSO group, and the IC so values were also calculated.

HCT116 cells = experiment: In vitro anti-proliferative activity against HCT116 cells (intracellular ATP content, 72 h); settings: read-out: anti-proliferative activity against HCT116 cells IC50, 72 h after dosing
Experimental: Biological Example 3. In Vitro Anti-Proliferative Activity of Compounds of the Present Invention Against HCT116 Cells
as §1, with “HCT116” for “HT-29”, “IC50” for “IC so”

Row | IC50 [1] [µM] | IC50 (HT-29 cells) [µM] | IC50 (HCT116 cells) [µM] | SMILES
1 | < 0.1 |  |  | CN1CCc2cc(NC(=O)c3ccc(NS(=O)(=O)CCO)cc3N3CCC4(CC3)CC4)cc(NC(C)(C)CO)c21
2 | < 0.1 |  |  | Cn1cnc2c(N3CCC(F)(F)CC3)cc(NC(=O)c3ccc(NS(=O)(=O)CCO)cc3N3CCC4(CC3)CC4)cc21
3 | < 0.1 |  |  | O=C(Nc1cc(N2CCC(F)(F)CC2)n2nccc2c1)c1ccc(NS(=O)(=O)CCO)cc1N1CCC2(CC1)CC2
4 | < 0.1 |  |  | CN1CCc2cc(NC(=O)c3ccc(S(=O)(=O)NCCO)cc3N3CCC4(CC3)CC4)cc(N3CCC(F)CC3)c21
5 | < 0.1 |  |  | CN1CCc2cc(NC(=O)c3ccc(S(=O)(=O)NCCO)cc3N3CCC4(CC3)CC4)nc(N3CCC(F)CC3)c21
6 | < 0.1 | 0.095 | > 10 | O=C(Nc1cc2c(c(N3CCC(F)(F)CC3)c1)OCO2)c1ccc(NS(=O)(=O)CCO)cc1N1CCC2(CC1)CC2
7 | < 0.1 |  |  | C[C@H]1CN(c2cc(C(=O)Nc3ccc(S(=O)(=O)NCCO)cc3N3CCC4(CC3)CC4)cc3c2N(C)CC3)CCO1
8 | < 0.1 |  |  | C[C@@H]1CN(c2nc(NC(=O)c3ccc(S(=O)(=O)NCCO)cc3N3CCC4(CC3)CC4)cc3c2OCC3)CCO1
